Molecular target: MDM2-p53 interaction (Homo sapiens (Human), UniProt Q00987)
Experiment: MDM2-p53 ELISA binding assay
Conditions: Table 2; mean ± SE of n = 3 unless indicated
Description: Streptavidin-coated 96-well plates are used to immobilise a biotin-tagged IP3 p53-derived peptide ([…]). This is a peptide analogue derived from the p53 binding site for MDM2 ([…]). […] Aliquots of MDM2 generated by in vitro translation are pre-incubated for 20 minutes at room temperature (i.e. 20-25° C.) with test compounds and controls, before transfer into the IP3-coated 96-well plates.
3-(4-Chloro-phenyl)-3-(4-hydroxy-3,5-dimethoxy-benzyloxy)-2-propyl-2,3-dihydro-isoindolin-1-one (NU8231) is currently included as a standard “lead compound” positive control. […] The AP peptide is included as a positive control for biological evaluation of the isoindolinones in the cell free binding assays.
All compounds are dissolved in DMSO and tested at a range of concentrations in the presence of a fixed final concentration of 5% DMSO.

Protein sequences, listed by entry. Tags and fused reporters are not part of them.
UniProt Q00987, whole entry: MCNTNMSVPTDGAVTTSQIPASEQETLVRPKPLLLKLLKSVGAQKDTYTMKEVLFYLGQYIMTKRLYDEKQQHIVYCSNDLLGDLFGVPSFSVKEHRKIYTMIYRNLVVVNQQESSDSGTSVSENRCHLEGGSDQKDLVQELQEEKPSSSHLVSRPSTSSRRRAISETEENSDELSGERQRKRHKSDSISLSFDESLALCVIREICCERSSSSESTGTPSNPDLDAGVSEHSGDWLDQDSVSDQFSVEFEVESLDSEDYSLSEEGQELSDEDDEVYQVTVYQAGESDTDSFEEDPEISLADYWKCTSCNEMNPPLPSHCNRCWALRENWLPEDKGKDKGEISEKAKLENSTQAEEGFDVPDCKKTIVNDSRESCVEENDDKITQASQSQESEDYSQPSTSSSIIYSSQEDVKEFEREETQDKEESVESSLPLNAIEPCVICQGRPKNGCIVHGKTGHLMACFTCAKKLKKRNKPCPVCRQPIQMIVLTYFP

IC50: 388 ± 107 nM
Structure (SMILES): O=C1c2ccccc2C(OC2CCC(O)CC2)(c2ccc(Cl)cc2)N1Cc1ccc([N+](=O)[O-])cc1 (stereo not shown) [NU8360, 3-(4-Chlorophenyl)-3-(4-hydroxycyclohexyloxy)-2-(4-nitrobenzyl)-2,3-dihydroisoindol-1-one]

Source: patent US8618158B2, “Therapeutic agents” (Cancer Research Technology Limited, priority 2008, dated 2013)
